# Measurements from patent publication US4210638A, “Antiviral composition and method of treating virus diseases” (PCR, Inc., priority 1978, dated 1980).
# Tests used:
# HSV-2 = assay: Antiviral activity vs HSV-2 in HEp-2 cells (plaque assay in BHK cells); format: cell-based; details: F3 methyl dC and F3 dT, with and without H4 U (FIG. 2)
# Procedure: The culture medium containing the nucleoside analogs at varying concentrations are added to the infected cultures. In the case of HEp-2 cells which contain high deaminase levels, H4 U is incorporated into the medium. At 48 hours, virus is harvested from the cultures by freezing and thawing. The virus produced from each culture is titred by plaque assay in BHK cells. By using this protocol the antiviral effectiveness of F3 methyl dC can be compared directly with the effectiveness of other antiviral agents. Furthermore, by including H4 U in the medium, the effectiveness of F3 methyl dC can be determined without deamination at the nucleoside level.
# HEp-2 cells = assay: Cytotoxicity vs HEp-2 cells (colony formation, % survival); details: F3 methyl dC and H4 U (FIG. 1)
SMILES,antiviral potency against HSV-2 (HSV-2),enhancement of survival by H4 U (HEp-2 cells)
"O=c1[nH]c(=O)n([C@H]2C[C@H](O)[C@@H](CO)O2)cc1C(F)(F)F [F3 dT, 5-trifluoromethyl-2'-deoxyuridine]",equally potent antiviral agents,–
"Nc1nc(=O)n([C@H]2C[C@H](O)[C@@H](CO)O2)cc1C(F)(F)F [F3 methyl dC, 5-trifluoromethyl-2'-deoxycytidine]",equally potent antiviral agents,dramatic enhancement of survival
